In PMC3906128 (Addiction biology, 2011):
Structures can show the parent of a compound that is named as a salt.

The chains behind the UniProt entries cited, without tags or fusion partners.
UniProt P33535, whole entry: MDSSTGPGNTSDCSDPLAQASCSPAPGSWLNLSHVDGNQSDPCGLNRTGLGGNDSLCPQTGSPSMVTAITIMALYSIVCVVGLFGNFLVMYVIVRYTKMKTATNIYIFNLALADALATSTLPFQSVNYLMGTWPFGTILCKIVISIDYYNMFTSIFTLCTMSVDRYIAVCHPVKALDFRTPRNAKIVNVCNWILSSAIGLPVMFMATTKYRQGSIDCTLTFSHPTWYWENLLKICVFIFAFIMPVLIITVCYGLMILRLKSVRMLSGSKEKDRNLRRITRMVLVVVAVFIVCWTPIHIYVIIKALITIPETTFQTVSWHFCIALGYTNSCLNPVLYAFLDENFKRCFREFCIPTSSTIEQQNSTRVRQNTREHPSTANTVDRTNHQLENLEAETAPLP

Biological target: MOP-R (Rattus norvegicus, UniProt P33535)
Experiment: DAMGO-stimulated [35S]GTPγS binding in rat midbrain membranes
Type: biochemical
Settings: Mean (± SEM) EC50 for Midbrain Opioid Stimulation, ethanol-trained rats

`C[C@@H](NC(=O)[C@@H](N)Cc1ccc(O)cc1)C(=O)NCC(=O)N(C)[C@@H](Cc1ccccc1)C(=O)NCCO` [DAMGO, [D-Ala^2, N-Me-Phe^4, Gly^5-ol]-Enkephalin acetate salt] was tested, and the EC50 (SoRI-9409 (5 mg/kg I.P.)/Yohimbine (2 mg/kg I.P.)) was 4 ± 0.3 µM, the EC50 (SoRI-9409 (5 mg/kg I.P.)/Yohimbine-vehicle) was 4 ± 0.1 µM and the EC50 (SoRI-9409-vehicle/Yohimbine (2 mg/kg I.P.)) was 3.7 ± 0.2 µM. The EC50 (SoRI-9409-vehicle/Yohimbine-vehicle) was 4.1 ± 0.2 µM.
